From patent US8263108B2, “Zero-order prolonged release coaxial implants” (Durect Corporation, priority 2001, dated 2012) come the findings set out here.

The nature of this data set: In vitro dissolution of naltrexone or fentanyl coaxial PCL implants. As to conditions: PBS pH 7.4, 37° C.

Structures are written as SMILES.

Take `O=C1CC[C@@]2(O)[C@H]3Cc4ccc(O)c5c4[C@@]2(CCN3CC2CC2)[C@H]1O5`: the “effect of membrane thickness on release of naltrexone base from coaxial implant” value (PCL coaxial implants, 10 or 30 wt % core, different ro:ri, FIG. 2) is listed as “The thicker the polymer membrane, the slower the release”. For the same molecule, the “release profile, highest core loading” value (implants having a ro:ri of 1.1, highest core loading, FIG. 3) was “zero-order release profile can be maintained for a longer duration”. In addition, the “release profile, lower loaded implants” value (implants having a ro:ri of 1.1, lower core loading, FIG. 3) is given as “gradual decline in the rate of NTX release”.
